Measured values reported in publication PMC2867455 (Journal of medicinal chemistry, 2010).

Target: T1, PFTase (Saccharomyces cerevisiae, UniProt P22007+P29703)
T1 sequence (P22007 1-431): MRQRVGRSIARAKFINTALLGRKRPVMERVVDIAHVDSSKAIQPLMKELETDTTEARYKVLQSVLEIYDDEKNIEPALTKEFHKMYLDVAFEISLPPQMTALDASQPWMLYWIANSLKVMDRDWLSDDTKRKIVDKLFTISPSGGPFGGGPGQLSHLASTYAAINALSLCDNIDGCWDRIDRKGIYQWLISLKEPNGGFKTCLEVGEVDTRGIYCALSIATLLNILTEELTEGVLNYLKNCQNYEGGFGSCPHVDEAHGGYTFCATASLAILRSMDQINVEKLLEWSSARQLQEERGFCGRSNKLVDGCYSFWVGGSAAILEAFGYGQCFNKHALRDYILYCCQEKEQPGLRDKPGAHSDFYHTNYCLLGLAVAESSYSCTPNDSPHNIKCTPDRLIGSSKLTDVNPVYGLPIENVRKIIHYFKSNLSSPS
T1 sequence (P29703 1-316): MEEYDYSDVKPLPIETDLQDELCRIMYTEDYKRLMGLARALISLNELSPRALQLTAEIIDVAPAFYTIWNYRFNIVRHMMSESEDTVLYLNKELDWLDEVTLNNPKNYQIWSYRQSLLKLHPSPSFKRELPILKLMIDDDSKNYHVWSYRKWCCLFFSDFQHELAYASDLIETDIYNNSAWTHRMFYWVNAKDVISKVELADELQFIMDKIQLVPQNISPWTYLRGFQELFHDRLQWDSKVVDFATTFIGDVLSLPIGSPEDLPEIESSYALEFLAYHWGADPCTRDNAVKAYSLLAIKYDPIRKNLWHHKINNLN
Test: PFTase in vitro continuous-fluorescence assay
Assay type: biochemical

PFTase inhibition (in words): appreciable inhibition
Structure (SMILES): Clc1ccc(COC(Cn2ccnc2)c2ccc(Cl)cc2Cl)cc1 (stereo not shown) [Econazole]
